Measurements: PMC6823245, “Positive Modulation of Angiotensin II Type 1 Receptor–Mediated Signaling by LVV–Hemorphin-7” (Frontiers in Pharmacology, 2019)

Assays:
[1] = target: AT1R-RlucII (angiotensin II type 1 receptor fused to Renilla luciferase) (human) (UniProt P30556)
[2] = target: untagged AT1R (AT1R-WT) (human) (UniProt P30556)
[3] = target: AT1R-RlucII (angiotensin II type 1 receptor fused to Renilla luciferase) (human) (UniProt P30556); remark: listed apart in the source

Log EC50 of AngII, BRET between AT1R-Rluc and Venus-Gαq, cells pretreated with 10 µM LVV–hemorphin-7 (log (concentration unit not given)) [1]: -8.78
Log EC50 of AngII, BRET between AT1R-Rluc and Venus-Gαq, control (log (concentration unit not given)) [1]: -7.68
Log EC50 of AngII, BRET between AT1R-Rluc and yPET–β-arrestin 2, cells pretreated with 10 µM LVV–hemorphin-7 (log (concentration unit not given)) [1]: -8.91
Log EC50 of AngII, BRET between AT1R-Rluc and yPET–β-arrestin 2, control (log (concentration unit not given)) [1]: -7.75
Log EC50 of AngII, IP1 production in cells coexpressing AT1R-Rluc and Venus-Gαq, control (log (concentration unit not given)) [1]: -7.57
Log EC50 of AngII, IP1 production in cells coexpressing AT1R-Rluc and Venus-Gαq, pretreated with 10 µM LVV–hemorphin-7 (log (concentration unit not given)) [1]: -8.93
Log EC50 of AngII, IP1 production in cells expressing AT1R-WT, control (log (concentration unit not given)) [2]: -8.15
Log EC50 of AngII, IP1 production in cells expressing AT1R-WT, with 10 µM LVV–hemorphin-7 (log (concentration unit not given)) [2]: -9.55
ERK1/2 phosphorylation (folds over untreated cells), cells coexpressing AT1R-Rluc and Venus-Gαq, 10 nM AngII [3]: 3.7 folds
Substance: angiotensin II (AngII) (peptide)
